The chains behind the UniProt entries cited, without tags or fusion partners.
UniProt P13922, whole entry, looked up, stated change not applied: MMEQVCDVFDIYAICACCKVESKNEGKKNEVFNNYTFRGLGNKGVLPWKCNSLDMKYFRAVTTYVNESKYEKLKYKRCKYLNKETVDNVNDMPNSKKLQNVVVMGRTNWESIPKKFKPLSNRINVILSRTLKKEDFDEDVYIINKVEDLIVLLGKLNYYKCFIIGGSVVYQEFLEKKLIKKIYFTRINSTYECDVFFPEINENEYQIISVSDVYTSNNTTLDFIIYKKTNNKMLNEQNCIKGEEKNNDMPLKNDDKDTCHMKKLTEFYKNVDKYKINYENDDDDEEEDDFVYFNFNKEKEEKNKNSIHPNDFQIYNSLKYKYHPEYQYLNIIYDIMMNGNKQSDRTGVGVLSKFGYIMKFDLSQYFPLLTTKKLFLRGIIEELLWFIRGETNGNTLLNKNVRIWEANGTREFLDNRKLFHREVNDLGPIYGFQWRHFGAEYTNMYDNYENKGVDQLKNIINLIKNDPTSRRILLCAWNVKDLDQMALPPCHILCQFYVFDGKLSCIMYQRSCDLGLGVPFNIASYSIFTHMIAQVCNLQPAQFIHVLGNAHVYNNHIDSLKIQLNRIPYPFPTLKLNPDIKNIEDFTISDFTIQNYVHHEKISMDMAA

In ChEMBL document CHEMBL1138835, “Inhibitors of multiple mutants of Plasmodium falciparum dihydrofolate reductase and their antimalarial activities” (J Med Chem, 2004):

Columns and labels:
[1] = biological target: Bifunctional dihydrofolate reductase-thymidylate synthase (Plasmodium falciparum K1, UniProt P13922, C59R/I164L/N51I/S108N); experiment: Binding affinity towards mutant dihydrofolate reductase (N51I+C59R+S108N+I164L DHFR) of Plasmodium falciparum
[2] = biological target: Bifunctional dihydrofolate reductase-thymidylate synthase (Plasmodium falciparum K1, UniProt P13922, A16V/S108T); experiment: Binding affinity towards mutant dihydrofolate reductase (A16V+S108T DHFR) of Plasmodium falciparum.
Procedure, shortened: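 Wild-type and mutant PfDHFR were expressed in E. coli BL21(DE3)pLysS. Enzyme was purified on methotrexate-Sepharose. Ki was calculated assuming inhibitors compete with substrate at the active site.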

[3] = biological target: Bifunctional dihydrofolate reductase-thymidylate synthase (Plasmodium falciparum K1, UniProt P13922, C59R/N51I/S108N); experiment: Binding affinity towards mutant dihydrofolate reductase (N51I+C59R+S108N DHFR) of Plasmodium falciparum
[4] = biological target: Bifunctional dihydrofolate reductase-thymidylate synthase (Plasmodium falciparum K1, UniProt P13922, C59R/I164L/S108N); experiment: Binding affinity towards mutant dihydrofolate reductase (C59R+S108N+I164L DHFR) of Plasmodium falciparum
[5] = biological target: Bifunctional dihydrofolate reductase-thymidylate synthase (Plasmodium falciparum K1, UniProt P13922); experiment: Binding affinity towards wild-type dihydrofolate reductase of Plasmodium falciparum.

Row | SMILES | Ki [1] [nM] | Ki [2] [nM] | Ki [3] [nM] | Ki [4] [nM] | Ki [5] [nM]
1 | CC1(C)N=C(N)N=C(N)N1c1cccc(Cl)c1 | 25 | 308 | 2.2 | 14 | –
2 | CC1N=C(N)N=C(N)N1c1cccc(Cl)c1 (centres undefined) | 14.3 | – | 4.2 | 9.9 | 10.2
3 | NC1=NC(c2ccccc2)N(c2ccc(Cl)cc2)C(N)=N1 (centres undefined) | – | – | – | – | 4.5
